Reference: article PMC3601784 (Chromatographia, 2012)

Amino acid sequences for entries named in this document (tags omitted).
UniProt P34913, whole entry: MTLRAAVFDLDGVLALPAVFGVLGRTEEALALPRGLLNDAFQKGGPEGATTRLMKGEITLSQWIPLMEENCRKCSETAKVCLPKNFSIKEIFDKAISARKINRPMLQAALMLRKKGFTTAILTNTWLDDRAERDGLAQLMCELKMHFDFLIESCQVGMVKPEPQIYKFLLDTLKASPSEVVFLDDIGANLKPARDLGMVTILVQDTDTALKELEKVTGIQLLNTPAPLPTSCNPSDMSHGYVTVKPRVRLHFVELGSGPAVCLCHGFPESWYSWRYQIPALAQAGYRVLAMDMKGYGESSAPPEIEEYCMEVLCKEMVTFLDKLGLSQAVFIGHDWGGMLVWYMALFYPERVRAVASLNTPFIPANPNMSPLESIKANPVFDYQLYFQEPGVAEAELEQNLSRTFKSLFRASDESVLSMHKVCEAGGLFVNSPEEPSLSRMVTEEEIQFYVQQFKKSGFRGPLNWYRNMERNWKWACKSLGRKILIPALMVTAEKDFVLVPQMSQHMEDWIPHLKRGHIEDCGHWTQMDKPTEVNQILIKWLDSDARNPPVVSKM

Target: Human recombinant sEH (Homo sapiens, UniProt P34913)
Experiment: LC-BCD/MS
Assay type: biochemical
Conditions: mixture of sEHi 6, sEHi 1, sEHi 7, diclofenac and phenylbutazone separated by LC

## O=C(O)Cc1ccccc1Nc1c(Cl)cccc1Cl [diclofenac]
  sEH activity (BCD peak) in a standard mixture: without sEH activity
